A549 viability – counter-screen for Nrf2 inhibitors: cytotoxicity in A549 cells. 390,000 compounds, 0.16% hits. A549 ARE-Fluc cells, CellTiter-Fluor viability, 18-24 h. Potency, µM (doses to about 46 µM), hits mostly inhibitors
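Cytotoxicity counterscreen: CellTiter-Fluor fluorescence was measured in A549 ARE_Fluc cells after 18-24 h of compound exposure in a concentration series. The subsequent BugLite luminescent read reports ARE-luciferase activity.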
B2AR arrestin – beta2AR (human) beta-arrestin recruitment activity | P07550 | beta-arrestin recruitment to beta2AR, cell-based reporter | Potency, µM (series often up to 46.1 µM), actives largely listed as activators | 330,000 compounds, 0.02% hits; also: nearly all actives have a fitted effect of over 65% in size
Nrf2 block – blocks Nrf2 signaling | Potency, µM (doses to about 46 µM), hits mostly inhibitors | 360,000 compounds, 2.1% hits | A549 ARE-Fluc reporter, luciferase luminescence, 18-24 h | AID 504444; also: nearly all actives have a fitted effect of over 60% in size
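Cells were seeded and rested 2 h, then exposed to compounds for 18-24 h. CellTiter-Fluor was read first as a viability measure. BugLite was added 15 min before the final luminescent read of ARE-luciferase activity in A549 cells.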
miR-21 reporter – raises the signal of a miR-21 reporter; AID 2288; 340,000 tested, under 10 active; Potency, µM (doses to about 38.3 µM); HeLa miR-21 FLuc reporter, luciferase, 48 h; active = well fitted rising curve with a large enough effect; inconclusive = small, poorly fitted or top-dose-only effect; inactive = no such curve, though single readings can be large or run the other way;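 note: miR-21 action dims this reporter so a rising signal means less miR-21 action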
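HeLa cells stably expressing CMV-driven firefly luciferase with a downstream miR-21 binding sequence, endogenously expressing miR-21, were treated with titrations (up to about 40uM final) for 48 hours at 37 degree Celsius. Luciferase luminescence was read after lysis.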
Nrf2 activator – Nrf2 pathway activation. Potency, µM (series often up to 46.1 µM), usual class: activators. AREc32 ARE-luciferase reporter (MCF7-derived line), luminescence, 24 h. 410,000 compounds, 0.31% hits; also: nearly all actives have a fitted effect of over 65% in size
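For detection, Steady-Glo was added and plates sat 30 min at RT; before that, AREc32_Fluc cells grown overnight in OPTI-MEM/5% FBS had been treated with 23 nL compound for 24 hr at 37 deg C.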
Numbers stand for hits; n = inactive; u = inconclusive; x = no result; [ ] = remark or other dose. A selection: hits, their analogues and other compounds. The true share with any hit is near 2.2%. Unless noted, calls follow the shape of the dose curve; as a rule, active = well fitted curve in the direction sought with a large enough effect; inconclusive = small, poorly fitted or top-dose-only effect, or another doubt; inactive = no such curve, though single readings can be large; an effect the other way counts as inactive or inconclusive.

SMILES	A549 viability	B2AR arrestin	Nrf2 block	miR-21 reporter	Nrf2 activator
Cc1ccc(-n2nc3c(=O)n(C(C)C(=O)NCc4ccccc4C)nc(C)c3c2C)cc1 (stereo unspecified)	n	x	5.17µM	n	n
Cc1ccc(-n2nc3c(=O)n(C(C)C(=O)O)nc(C)c3c2C)cc1 (stereo unspecified)	n	x	n	n	n
Cc1ccc(CCNC(=O)C(C)n2nc(C)c3c(C)n(-c4ccccc4)nc3c2=O)cc1 (stereo unspecified)	n	n	n	n	n
Cc1ccc(-n2nc3c(=O)n(C(C)C(=O)NCc4ccc(Cl)cc4)nc(C)c3c2C)cc1 (stereo unspecified)	n	n	10.3µM	n	n
CCC(C(=O)NCCc1ccc(C)cc1)n1nc(C)c2c(C)n(-c3ccccc3)nc2c1=O (stereo unspecified)	n	n	16.4µM	n	n
Cc1nn(C(C)C(=O)NCc2ccccc2F)c(=O)c2nn(-c3ccccc3)c(C)c12 (stereo unspecified)	n	n	n	n	n
Cc1ccc(-n2nc3c(=O)n(C(C)C(=O)NCCC4=CCCCC4)nc(C)c3c2C)cc1 (stereo unspecified)	n	n	20.6µM	n	n
O=S(=O)(c1cnc2ccccc2c1)N1CCN(c2nc(-c3cccs3)nc3ccccc23)CC1	n	x	n	x	x
CCc1ccccc1NC(=O)C(=O)NCC(c1cccnc1)N1CCc2ccccc21 (stereo unspecified)	n	x	n	n	n
Cc1ccc(CNC(=O)CN(c2ccc(C(C)C)cc2)S(=O)(=O)c2c(C)n[nH]c2C)cc1	u	x	23.1µM	n	n
COc1cccc(CNC(=O)CN(c2ccc(C(C)C)cc2)S(=O)(=O)c2c(C)noc2C)c1	n	n	16.4µM	n	n
CCOc1ccccc1NC(=O)CN(c1ccc(C)cc1)S(=O)(=O)c1c(C)noc1C	n	n	16.4µM	n	n
CCOc1ccc(OCC)c(NC(=O)CN(c2ccc(C)cc2)S(=O)(=O)c2c(C)noc2C)c1	n	n	n	n	n
CCOc1ccccc1N(C)C(=O)Cn1cnc2onc(-c3ccc(F)cc3)c2c1=O	n	x	n	n	n
Cc1cccn2c(=O)cc(CSc3nnc(NC(=O)COc4ccc(F)cc4)s3)nc12	n	x	x	n	n
O=C1CN(C(=O)COc2ccc(Cl)cc2Cl)C(c2ccccc2)c2cc(F)ccc2N1 (stereo unspecified)	n	x	n[9.27 µM]	u	n
CCOc1ccc(CNC(=O)c2cccc(NC(=O)N3CCSc4ncccc43)c2)cc1OC	n	x	u	n	n
c1ccc(N=c2nc(-c3ccccc3)n(-c3ccccc3)s2)cc1	n	x	u	x	x
Clc1ccccc1-c1nnc2sc(-c3ccncc3)nn12	n	n	n	n	n
Clc1ccccc1-c1nn2c(-c3ccncc3)nnc2s1	n	n	8.2µM	n	n
Cc1cc(C)c(NC(=O)CSc2n[nH]c(-c3ccccc3Cl)n2)c(C)c1	n	x	x	n	n
COc1ccc(-c2cc(C)no2)cc1S(=O)(=O)Nc1cccc(C)c1	n	n	23.1µM	n	n
O=c1cc(CSc2ncn[nH]2)[nH]c2c(Cl)cccc12	n	x	x	n	n
COC(=O)c1ccccc1S(=O)(=O)Nc1cc(=O)c2ccccc2[nH]1	n	x	u	x	x
O=C(C1=C[C@H](c2ccc3c(c2)OCO3)C[C@H](OCc2ccc(CO)cc2)O1)N1CCN(Cc2ccc3c(c2)OCO3)CC1	n	n	20.6µM	n	n
SMILES	A549 viability	B2AR arrestin	Nrf2 block	miR-21 reporter	Nrf2 activator
O=C(C1=C[C@@H](c2ccc3c(c2)OCO3)C[C@@H](OCCCCO)O1)N1CCN(Cc2ccc3c(c2)OCO3)CC1	n	n	n	n	n
O=C(C1=C[C@H](c2ccc(Br)cc2)C[C@H](OCc2ccc(CO)cc2)O1)N1CCN(Cc2ccc3c(c2)OCO3)CC1	n	n	u	n	n
O=C(C1=C[C@H](C2CCCCC2)C[C@H](OCCCCO)O1)N1CCN(Cc2ccc3c(c2)OCO3)CC1	u	n	18.4µM	n	n
COc1ccccc1-c1nnc(C2CCN(C(=O)c3cccc(C)c3)CC2)o1	n	x	n	n	n
Cc1noc(/C=C/c2cccnc2)c1[N+](=O)[O-]	u	n	18.4µM	u	n
O=C(NCC1CCCO1)c1cccc(S(=O)(=O)N2CCCCC2)c1 (stereo unspecified)	n	n	n	x	n
CC1CCN(S(=O)(=O)c2cccc(C(=O)NCC3CCCO3)c2)CC1 (stereo unspecified)	n	n	13µM	n	n
CCC1=C(OC(=O)N(CC)CC)N2C(=O)OC(=NCc3ccccc3)[C@]2(C)[C@H]2C1=CC[C@H]1C(=O)NC(=O)[C@H]12	n	n	18.4µM	n	n
CCC1=C(OC(=O)N(CC)CC)N2C(=O)OC(=NCC(=O)OC)[C@]2(C)[C@H]2C1=CC[C@H]1C(=O)NC(=O)[C@H]12	n	n	n	n	n
Cc1ccc(NC(=O)N2CCc3c(sc4c3CCCC4)C2c2ccccc2)cc1F (stereo unspecified)	n	x	x	n	n
CC(=O)N1CCc2c(sc3c2c(=O)n(-c2ccc(C)cc2)c(=O)n3Cc2ccccc2C)C1	n	x	n	n	n
CCOc1ccccc1-c1nc(CN2CCN(C(=O)c3ccco3)CC2)c(C)o1	n	n	n	n	n
CCOc1ccccc1-n1c(CN2CCN(C(=O)c3ccco3)CC2)nc2ccccc2c1=O	n	n	16.4µM	n	n
COc1cc(OC)cc(-c2nnc3n2N=C(c2cc(OC)ccc2OC)CS3)c1	n	x	n	x	x
O=C(NNC(=S)Nc1cccc(Cl)c1)c1ccccc1OC(F)F	n	n	20.6µM	n	n
COc1cccc(C2c3c(ncn(-c4cccnc4)c3=N)Oc3ccc4ccccc4c32)c1 (stereo unspecified)	n	x	n	x	x
CCCc1c(C(=O)Nc2cc(C(C)(C)C)on2)cnn1-c1ccccc1	n	n	6.51µM	n	n
Cn1c(=O)n(C)c2cc(NC(=O)COc3ccc(Cl)cc3)ccc21	n	n	16.4µM	n	n
Cn1c(=O)n(C)c2cc(NC(=O)COc3ccc(F)cc3F)ccc21	n	n	u	n	n[9.22 µM]
O=C1c2ccccc2C(=O)N1c1ccc(S(=O)(=O)N2CCOCC2)cc1	n	x	n	x	x
C=CCn1c(SCCOc2ccc(OC)cc2)nnc1C(C)NC(=O)Cc1ccc(OC)cc1 (stereo unspecified)	n	n	23.1µM	n	n
NC(=S)N=Nc1c(O)n(Cc2ccc(Br)cc2)c2ccccc12	n	n	u	n	n
NC(=S)N=Nc1c(O)n(Cc2ccc(F)cc2)c2ccccc12	n	9.2µM	n	n	n
Oc1c(N=NC(=S)Nc2ccccc2F)c2ccccc2n1Cc1cccc(Cl)c1	u	n	u	n	n
Cc1cccc(Cn2c(O)c(N=NC(=S)Nc3ccccc3F)c3ccccc32)c1	u	n	5.8µM	n	n

High-throughput results as filed in PubChem.
